The list shows a part of the results, in another mix than the full data. Activity calls are given as the source filed them. No stated cut-off is given here; in the data, active means inhibition above about 21%; inactive means the rest.
target: Receptor-interacting serine/threonine-protein kinase 2 (Homo sapiens) (UniProt O43353); experiment: NOD2-RIPK2 binding disruptors in cells, primary screen, fluorescence, CHO cells, BLA complementation (AID 624267); settings: CHO BLA complementation NOD2-RIPK2, CCF4 ratio; at 4.98 µM; hits give high values;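 further: 0% = vehicle only and 100% = reference blocker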

Chains of the proteins cited; added tags and fusions are not shown.
UniProt O43353, whole entry: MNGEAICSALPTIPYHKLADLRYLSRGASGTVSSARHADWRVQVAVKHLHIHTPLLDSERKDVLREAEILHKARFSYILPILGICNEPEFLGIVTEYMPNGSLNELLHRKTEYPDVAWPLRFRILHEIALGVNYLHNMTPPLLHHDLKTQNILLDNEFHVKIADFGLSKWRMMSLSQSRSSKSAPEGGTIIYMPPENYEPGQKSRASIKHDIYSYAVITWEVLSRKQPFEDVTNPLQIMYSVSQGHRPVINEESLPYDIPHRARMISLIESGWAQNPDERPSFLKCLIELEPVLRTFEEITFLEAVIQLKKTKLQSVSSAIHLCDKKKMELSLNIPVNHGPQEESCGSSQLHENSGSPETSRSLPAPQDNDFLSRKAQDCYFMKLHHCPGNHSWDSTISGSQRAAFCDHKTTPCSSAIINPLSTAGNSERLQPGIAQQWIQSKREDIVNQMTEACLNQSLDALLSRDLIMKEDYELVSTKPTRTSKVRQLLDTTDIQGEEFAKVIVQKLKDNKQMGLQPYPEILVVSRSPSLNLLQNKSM

Row | Compound | inhibition
1 | CCC(c1nnnn1C(C)(C)C)N1CCC(n2c(=O)[nH]c3ccccc32)CC1 (centres undefined) | inactive: -8.18%
2 | O=C(NCC1(N2CCOCC2)CCCCC1)c1cc(F)c(F)cc1Cl | inactive: -3.05%
3 | COc1ccc(CN(CCCl)CCCl)cc1Cl | inactive: -2.87%
4 | CN(C)c1cccc(C(=O)NCC2(N3CCCCC3)CCCCC2)c1 | inactive: 2.19%
5 | CCCCn1nnnc1C(c1ccccc1OC(F)(F)F)N1CCC(n2c(=O)[nH]c3ccccc32)CC1 (centres undefined) | inactive: -6.65%
6 | CC(C)c1ccc(NC2CCN(C(=O)OC(C)(C)C)CC2)cc1 | inactive: -1.97%
7 | CN1CCN(CCOC(=O)C(O)(c2ccccc2)c2ccccc2)CC1 | inactive: -5.32%
8 | COc1ccc(NC2CCN(C(=O)OC(C)(C)C)CC2)cc1 | inactive: 1.53%
9 | CC(C)c1ccc(C(=O)NCC2(N3CCOCC3)CCCCC2)cc1 | inactive: 7.54%
10 | CCCCn1nnnc1C(c1cccc2ccccc12)N1CCC(n2c(=O)[nH]c3ccccc32)CC1 (centres undefined) | inactive: -6.44%
11 | COc1cc(C(=O)NCC2(N3CCCCC3)CCCCC2)ccc1OC(F)F | inactive: -4.1%
12 | O=C(NCC1(N2CCOCC2)CCCCC1)c1cc(=O)[nH]c2ccccc12 | inactive: -7.31%
13 | O=C(NCC1(N2CCCCC2)CCCCC1)c1cccc(C(F)(F)F)c1 | inactive: 3.36%
14 | O=C(NCC1(N2CCCCC2)CCCCC1)c1cccc([N+](=O)[O-])c1 | inactive: 1.38%
15 | CSc1ccc(C(=O)NCC2(N3CCOCC3)CCCCC2)cc1 | inactive: -4.48%
16 | CCN1CCC(Nc2ccc(Cl)cc2)CC1 | inactive: -4.62%
17 | O=c1[nH]c2ccccc2n1C1CCN(C(c2ccccc2OC(F)(F)F)c2nnnn2C2CCCC2)CC1 (centres undefined) | inactive: 7.09%
18 | N#CC1(Nc2ccccc2)CCN(CCc2ccccc2)CC1 | inactive: 8.33%
19 | CC(C)(C)n1nnnc1C(c1ccccc1OC(F)(F)F)N1CCC(n2c(=O)[nH]c3ccccc32)CC1 (centres undefined) | inactive: -9.32%
20 | O=C(NCC1(N2CCCCC2)CCCCC1)c1ccc(OC(F)F)cc1 | inactive: 0.06%
21 | O=c1[nH]c2ccccc2n1C1CCN(C(c2cccc3ccccc23)c2nnnn2C2CCCC2)CC1 (centres undefined) | inactive: -10.6%
22 | CCOC(=O)N1CCC(Nc2cccc(C)c2)CC1 | inactive: -12.3%
23 | COc1cc(C(=O)NCC2(N(C)C)CCCCC2)ccc1OC(F)F | inactive: -12.8%
24 | O=c1[nH]c2ccccc2n1C1CCN(C(c2ccccc2)c2nnnn2C2CCCCC2)CC1 (centres undefined) | inactive: -7.06%
25 | CCCCn1nnnc1C(c1cc2ccccc2o1)N1CCC(n2c(=O)[nH]c3ccccc32)CC1 (centres undefined) | inactive: -9.55%
26 | O=P1(N(CCCl)CCCl)SCCCS1 | inactive: -6.01%
27 | CCCCOc1ccc(C(=O)NCC2(N3CCOCC3)CCCCC2)cc1 | inactive: -1.18%

Row | Compound | inhibition
28 | O=C(NCC1(N2CCCCC2)CCCCC1)c1ccc(F)cc1 | inactive: -50.2%
29 | COc1ccc(NC2CCN(CCc3ccccc3)CC2)c(OC)c1 | inactive: 4.76%
30 | CCOC(=O)N1CCC(Nc2ccc(F)cc2)CC1 | inactive: -9.57%
31 | CCOc1ccc(C)cc1CN(CCCl)CCCl | inactive: -10.4%
32 | CC(C)(C)n1nnnc1C(c1ccccc1)N1CCC(n2c(=O)[nH]c3ccccc32)CC1 (centres undefined) | inactive: -15.2%
33 | O=C1CCN(Cc2ccccc2)CC1 | inactive: -2.95%
34 | CCOC(=O)N1CCC(Nc2ccc(OC)cc2)CC1 | inactive: 3.77%
35 | CCCCn1nnnc1C(c1ccc(OC)cc1)N1CCC(n2c(=O)[nH]c3ccccc32)CC1 (centres undefined) | inactive: -11.7%
36 | O=C(NCC1(N2CCCCC2)CCCCC1)c1ccc(Cl)s1 | inactive: -0.02%
37 | N#CC1(Nc2ccccc2)CCN(Cc2ccccc2)CC1 | inactive: 7.55%
38 | O=C(OC1CN2CCC1CC2)C1c2ccccc2Oc2ccccc21 (centres undefined) | inactive: -0.36%
39 | O=c1[nH]c2ccccc2n1C1CCN(C(c2cc3ccccc3o2)c2nnnn2C2CCCCC2)CC1 (centres undefined) | inactive: -1.97%
40 | COc1ccc(Cl)cc1C(=O)NCC1(N2CCOCC2)CCCCC1 | inactive: -4.64%
41 | O=C(NCC1(N2CCOCC2)CCCCC1)c1cc2ccccc2o1 | inactive: 2.19%
42 | O=C(NCC1(N2CCCCC2)CCCCC1)c1ccc(Cl)nc1 | inactive: 7.3%
43 | O=c1[nH]c2ccccc2n1C1CCN(C(c2ccccc2OC(F)(F)F)c2nnnn2C2CCCCC2)CC1 (centres undefined) | inactive: -8.76%
44 | Cc1cc(C)cc(N(C(=O)c2ccccc2)C2CCN(C(=O)OC(C)(C)C)CC2)c1 | inactive: 2.76%
45 | CSc1ccccc1C(=O)NCC1(N2CCCCC2)CCCCC1 | inactive: 1.24%
46 | Cc1cccc(NC2(C#N)CCN(Cc3ccccc3)CC2)c1 | inactive: -17.5%
47 | O=C(NCC1(N2CCCCC2)CCCCC1)c1ccc(=O)[nH]c1 | inactive: 2.28%
48 | CCCCn1nnnc1C(CC)N1CCC(n2c(=O)[nH]c3ccccc32)CC1 (centres undefined) | inactive: -4.33%
49 | O=C(NCC1(N2CCCCC2)CCCCC1)c1cccs1 | inactive: -1.09%
50 | CCCCn1nnnc1C(c1cccs1)N1CCC(n2c(=O)[nH]c3ccccc32)CC1 (centres undefined) | inactive: 2.55%
51 | COc1ccc(C(=O)NCC2(N3CCCCC3)CCCCC2)cc1 | inactive: -4.43%
52 | COc1ccc(C(=O)NCC2(N3CCCCC3)CCCCC2)c(OC)c1OC | inactive: 2.61%
53 | CC(C)(C)OC(=O)N1CCC(N(C(=O)c2ccccc2)c2ccc(F)cc2)CC1 | inactive: -15.4%
54 | CCC(c1nnnn1C1CCCC1)N1CCC(n2c(=O)[nH]c3ccccc32)CC1 (centres undefined) | inactive: -5.4%

— PubChem BioAssay AID624267 (The Scripps Research Institute Molecular Screening Center, 2012)
